What was measured:
cannabinoid CB1 = cannabinoid CB1 (Rattus norvegicus, UniProt P20272); assay: biochemical; conditions: read-out: % of control specific binding, CB1
5-HT6R = 5-HT6R (Homo sapiens, UniProt P50406); conditions: read-out: Ki 5-HT6R; cited from earlier work
rats = conditions: rat, in vivo
[1] = target: human histamine H3 receptor (Homo sapiens, UniProt Q9Y5N1); assay: biochemical; conditions: read-out: % of control specific binding, H3
in vitro = conditions: rat, microsomes

Sequences of proteins named here, by UniProt entry; tags and fusion partners are left off. A change or cut given only in a name is not applied to a line headed by its entry.
UniProt P20272, whole entry: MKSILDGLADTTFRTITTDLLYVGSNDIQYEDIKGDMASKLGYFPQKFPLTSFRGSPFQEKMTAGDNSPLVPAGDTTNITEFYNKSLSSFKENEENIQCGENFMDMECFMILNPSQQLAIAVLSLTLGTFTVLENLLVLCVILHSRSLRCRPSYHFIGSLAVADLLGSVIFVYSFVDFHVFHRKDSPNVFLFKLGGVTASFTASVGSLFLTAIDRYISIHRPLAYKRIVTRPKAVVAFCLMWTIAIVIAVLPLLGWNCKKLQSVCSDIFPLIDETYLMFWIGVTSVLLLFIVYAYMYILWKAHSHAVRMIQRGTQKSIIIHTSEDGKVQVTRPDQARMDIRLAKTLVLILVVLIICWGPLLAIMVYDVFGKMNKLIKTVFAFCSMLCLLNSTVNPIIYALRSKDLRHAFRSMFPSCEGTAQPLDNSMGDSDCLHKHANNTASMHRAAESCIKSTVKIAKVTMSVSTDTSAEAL
UniProt P50406, whole entry: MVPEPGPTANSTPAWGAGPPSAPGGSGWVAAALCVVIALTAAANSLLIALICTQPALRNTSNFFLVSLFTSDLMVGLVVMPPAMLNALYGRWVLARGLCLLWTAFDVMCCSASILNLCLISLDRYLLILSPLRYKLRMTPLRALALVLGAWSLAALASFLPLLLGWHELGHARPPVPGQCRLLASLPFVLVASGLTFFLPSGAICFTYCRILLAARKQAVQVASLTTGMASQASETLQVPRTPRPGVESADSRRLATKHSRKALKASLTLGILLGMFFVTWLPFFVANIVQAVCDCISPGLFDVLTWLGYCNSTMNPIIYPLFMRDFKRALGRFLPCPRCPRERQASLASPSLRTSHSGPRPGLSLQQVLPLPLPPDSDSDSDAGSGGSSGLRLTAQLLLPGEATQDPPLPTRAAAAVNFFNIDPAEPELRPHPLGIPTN
UniProt Q9Y5N1: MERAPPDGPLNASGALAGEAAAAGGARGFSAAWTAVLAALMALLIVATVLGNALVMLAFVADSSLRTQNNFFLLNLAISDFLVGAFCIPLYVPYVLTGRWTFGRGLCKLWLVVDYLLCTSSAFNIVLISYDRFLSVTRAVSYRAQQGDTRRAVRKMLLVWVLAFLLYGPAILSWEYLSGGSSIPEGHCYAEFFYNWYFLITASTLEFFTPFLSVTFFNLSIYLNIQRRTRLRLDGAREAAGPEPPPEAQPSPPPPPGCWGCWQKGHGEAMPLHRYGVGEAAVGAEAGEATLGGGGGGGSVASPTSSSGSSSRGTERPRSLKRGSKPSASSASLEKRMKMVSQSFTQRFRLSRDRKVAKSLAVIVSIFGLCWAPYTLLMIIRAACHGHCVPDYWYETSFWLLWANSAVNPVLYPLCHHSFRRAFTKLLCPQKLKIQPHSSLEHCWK

Row | SMILES | Ki (5-HT6R) | other results
1 | Cc1c(C(=O)NN2CCCCC2)nn(-c2ccc(Cl)cc2Cl)c1-c1ccc(I)cc1 [AM251] |  | inhibition at 1 µM (cannabinoid CB1): 100%
2 | CN1CCN(c2nc(N)nc(Cc3ccc(Cl)cc3)n2)CC1 [I] | 52 nM | 
3 | NC(=O)NCC1CCCc2cc(S(=O)(=O)c3ccccc3)ccc21 (centres unmarked) [F] | 0.63 nM | 
4 | CC(C)CS(=O)(=O)n1ccc2c(-c3ccc(C(F)(F)F)cc3)cc(N3CCN(C)CC3)nc21 [A] | 52 nM | 
5 | COc1cc2c(cc1OC)C(=O)C(CC1CCN(Cc3ccccc3)CC1)C2 (centres unmarked) [donepezil] |  | reversal of MK-801-induced memory impairment, discrimination index (DI) (rats): statistically significant level was reached
6 | Clc1ccc(CCCOCCCN2CCCCC2)cc1 [Pitolisant] |  | inhibition at 1 µM [1]: 71%
7 | CN1CCN(c2nc(N)nc(-c3ccc(Cl)cc3)n2)CC1 [III] | 2710 nM | 
8 | CCS(=O)(=O)c1nc(S(=O)(=O)c2ccc(Cl)cc2)c(N2CCc3ccccc3C2)s1 [E] | 119 nM | 
9 | CC([Se]c1ccc2ccccc2c1)c1nc(N)nc(N2CCN(C)CC2)n1 (centres unmarked) |  | remaining at 2 h (in vitro): 53.3%
10 | CCC([Se]c1ccc2ccccc2c1)c1nc(N)nc(N2CCN(C)CC2)n1 (centres unmarked) |  | remaining at 2 h (in vitro): 77.6%
11 | CN1CCN(c2nc(N)nc(COc3ccccc3)n2)CC1 [IV] | 507 nM | 

From article PMC10823479 (Journal of Medicinal Chemistry, 2024)
